US20080085860A1 (Eli Lilly, published 2008)

Biological target: T1, Rat VPAC2 receptor (rat, UniProt P35000 23-437)
T1 sequence (looked up): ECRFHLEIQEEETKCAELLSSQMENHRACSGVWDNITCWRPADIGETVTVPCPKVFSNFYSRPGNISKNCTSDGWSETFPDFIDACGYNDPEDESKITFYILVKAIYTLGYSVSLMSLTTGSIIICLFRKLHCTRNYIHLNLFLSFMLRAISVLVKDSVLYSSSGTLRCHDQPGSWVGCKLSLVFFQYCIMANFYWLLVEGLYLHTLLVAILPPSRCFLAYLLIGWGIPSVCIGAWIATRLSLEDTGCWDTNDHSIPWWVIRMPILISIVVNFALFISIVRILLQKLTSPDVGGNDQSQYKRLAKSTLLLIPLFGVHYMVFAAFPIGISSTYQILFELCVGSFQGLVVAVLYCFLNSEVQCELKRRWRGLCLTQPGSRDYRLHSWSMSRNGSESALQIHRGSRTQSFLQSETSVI
Experiment: cell-based or functional assay

EC50 (nm), in vitro potency using DiscoveRx (cAMP): 0.79 nM
Binder: HSDAVFTDNYTRLRKQMAVKKYLNSILN [VIP (vasoactive intestinal peptide) (SEQ ID NO: 1)]
